Membrane permeability of cyclic peptides

PAMPA measures passive passage through an artificial lipid membrane.
Permeability is given as log10 of P in cm/s; higher (less negative) is more permeable.

compound,PAMPA (log10 cm/s)
CC(C)C[C@@H]1NC(=O)[C@H]2CCCN2C(=O)[C@H](CC(C)C)N(C)C(=O)[C@H](CC(C)C)NC(=O)[C@@H](C)NC(=O)[C@H](Cc2ccccc2)NC1=O,-5.16
CC(C)C[C@@H]1NC(=O)[C@@H](CC(C)C)N(C)C(=O)[C@H](C)NC(=O)[C@H](Cc2ccccc2)NC(=O)[C@H](CC(C)C)N(C)C(=O)[C@@H]2CCCN2C1=O,-5.00
CC(C)C[C@@H]1C(=O)N(C)[C@H](CC(C)C)C(=O)N2CCC[C@H]2C(=O)N(C)[C@H](CC(C)C)C(=O)N[C@@H](Cc2ccccc2)C(=O)N2CCC[C@@H]2C(=O)N[C@@H](C)C(=O)N1C,-5.58
CC(C)C[C@H]1NC(=O)[C@@H](C)N(C)C(=O)[C@@H]2CCCN2C(=O)[C@H](Cc2ccccc2)NC(=O)[C@H](CC(C)C)N(C)C(=O)[C@@H]2CCCN2C(=O)C[C@H](Cc2ccccc2)NC1=O,-5.78
CC(C)C[C@@H]1C(=O)N2CCC[C@H]2C(=O)N(C)[C@H](CC(C)C)C(=O)N[C@@H](Cc2ccccc2)C(=O)N2CCC[C@H]2C(=O)N[C@@H](C)C(=O)N(C)[C@@H](CC(C)C)C(=O)N1C,-5.36
CC(C)C[C@@H]1NC(=O)[C@@H]2CCCN2C(=O)[C@@H](CC(C)C)N(C)C(=O)[C@H](CC(C)C)N(C)C(=O)[C@@H](C)NC(=O)[C@H]2CCCN2C(=O)[C@H](Cc2ccccc2)NC1=O,-5.87
CCCN1CC(=O)N(C)[C@@H](CC(C)C)C(=O)N(C)[C@H](CC(C)C)C(=O)N2CCC[C@H]2C(=O)N[C@H](CC(C)C)C(=O)N[C@@H](Cc2ccccc2)C(=O)N2CCC[C@H]2C1=O,-4.98
CC(C)C[C@@H]1C(=O)N(Cc2ccccc2)CC(=O)N2CCC[C@@H]2C(=O)N(C)[C@@H](CC(C)C)C(=O)N[C@@H](Cc2ccccc2)C(=O)N2CCC[C@@H]2C(=O)N[C@H](C)C(=O)N1C,-5.66
CC(C)C[C@@H]1NC(=O)[C@H](C)N(C)C(=O)[C@H]2CCCN2C(=O)[C@H](Cc2ccccc2)NC(=O)CN(Cc2ccccc2)C(=O)[C@H]2CCCN2C(=O)[C@H](CC(C)C)N(C)C1=O,-5.01
CC(C)C[C@@H]1C(=O)N(Cc2ccccc2)CC(=O)N2CCC[C@H]2C(=O)N(C)[C@H](CC(C)C)C(=O)N[C@@H](Cc2ccccc2)C(=O)N2CCC[C@H]2C(=O)N[C@H](C)C(=O)N1C,-6.03
CC(C)C[C@@H]1NC(=O)[C@H]2CCCN2C(=O)CN(Cc2ccccc2)C(=O)[C@@H](CC(C)C)NC(=O)[C@H](C)NC(=O)[C@H](Cc2ccccc2)NC1=O,-6.34
CC(C)C[C@@H]1C(=O)N(C)[C@@H](CC(C)C)C(=O)N2CCC[C@@H]2C(=O)N(C)[C@@H](CC(C)C)C(=O)N[C@@H](Cc2ccccc2)C(=O)N[C@@H](Cc2ccccc2)CC(=O)N1C,-5.53
CC(C)C[C@@H]1NC(=O)[C@H](CC(C)C)N(C)C(=O)[C@H](C)NC(=O)[C@@H]2CCCN2C(=O)[C@H](Cc2ccccc2)NC(=O)[C@H](CC(C)C)N(C)C(=O)[C@@H]2CCCN2C1=O,-5.61
CC(C)C[C@H]1NC(=O)[C@H](C)N(C)C(=O)[C@H]2CCCN2C(=O)[C@H](Cc2ccccc2)NC(=O)[C@H](CC(C)C)N(C)C(=O)[C@H]2CCCN2C(=O)[C@H](CC(C)C)N(C)C1=O,-5.05
CC(C)C[C@@H]1NC(=O)[C@H](C)N(C)C(=O)[C@@H]2CCCN2C(=O)[C@H](Cc2ccccc2)NC(=O)CN(Cc2ccccc2)C(=O)[C@@H]2CCCN2C(=O)C[C@H](Cc2ccccc2)NC1=O,-6.10
CC(C)C[C@H]1NC(=O)C[C@H](Cc2ccccc2)NC(=O)[C@H]2CCCN2C(=O)[C@H](Cc2ccccc2)NC(=O)CN(Cc2ccccc2)C(=O)[C@H]2CCCN2C(=O)[C@@H](CC(C)C)NC1=O,-6.25
CC(C)C[C@H]1NC(=O)[C@H](C)NC(=O)[C@H](Cc2ccccc2)NC(=O)[C@@H](CC(C)C)NC(=O)[C@H]2CCCN2C(=O)C[C@H](Cc2ccccc2)NC1=O,-5.04
CC(C)C[C@H]1NC(=O)[C@H](CC(C)C)N(C)C(=O)[C@@H](C)NC(=O)[C@H]2CCCN2C(=O)[C@H](Cc2ccccc2)NC(=O)CN(Cc2ccccc2)C(=O)[C@H]2CCCN2C1=O,-6.27
CC(C)C[C@@H]1C(=O)N[C@H](CC(C)C)C(=O)N2CCC[C@@H]2C(=O)N(Cc2ccccc2)CC(=O)N[C@@H](Cc2ccccc2)C(=O)N2CCC[C@H]2C(=O)N(C)[C@H](C)C(=O)N1C,-5.41
CC(C)C[C@H]1NC(=O)[C@H](CC(C)C)N(C)C(=O)[C@H](C)NC(=O)[C@H](Cc2ccccc2)NC(=O)CN(Cc2ccccc2)C(=O)[C@@H]2CCCN2C1=O,-5.12

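Conditions beyond the assay type are not listed; see the original paper. Other peptides of the study may be missing here. Entries at the database's floor value (log10 P of -10) are not listed.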

Source: CycPeptMPDB (Li et al. 2023), which took these values from Townsend et al. 2020, doi:10.26434/chemrxiv.13335941.v1.